# Results: US5487990A (The General Hospital Corporation, priority 1992, dated 1996)
# Protein sequences, listed by entry. Tags and fused reporters are not part of them.
# UniProt P32316, whole entry: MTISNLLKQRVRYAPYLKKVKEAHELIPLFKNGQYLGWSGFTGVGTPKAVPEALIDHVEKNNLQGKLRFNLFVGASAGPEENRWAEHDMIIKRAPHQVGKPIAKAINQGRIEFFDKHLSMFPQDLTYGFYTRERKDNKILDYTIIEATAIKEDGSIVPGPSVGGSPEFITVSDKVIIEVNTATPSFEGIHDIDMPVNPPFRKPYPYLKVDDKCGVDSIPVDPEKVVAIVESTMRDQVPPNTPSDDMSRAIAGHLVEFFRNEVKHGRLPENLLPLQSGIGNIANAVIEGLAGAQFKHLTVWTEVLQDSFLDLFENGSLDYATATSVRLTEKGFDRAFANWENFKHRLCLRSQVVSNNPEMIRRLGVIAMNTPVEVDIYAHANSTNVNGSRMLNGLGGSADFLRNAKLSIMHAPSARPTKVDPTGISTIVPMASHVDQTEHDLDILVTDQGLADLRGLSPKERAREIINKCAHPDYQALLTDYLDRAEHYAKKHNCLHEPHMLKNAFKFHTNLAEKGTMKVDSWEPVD
# Molecular target: Acetyl-CoA Hydrolase from S. cerevisiae (Saccharomyces cerevisiae, UniProt P32316)
# Assay: Chemical modification of the enzyme, dialysis, then radioactive assay
# Format: biochemical
structure (smiles),measurement,setting,value
O=[N+]([O-])c1cc([N+](=O)[O-])c(S(=O)(=O)O)c([N+](=O)[O-])c1,effect on enzyme activity (in words),1 mM,no effect
same,effect on enzyme activity (in words),10 mM,partial inactivation

# Only a part of the results on these compounds is given; other tests are left out.
